Data: article PMC8532962 (Antibiotics, 2021)

Experiments:
[1] = system: Saccharomyces cerevisiae S288C; conditions: 24 h
Candida albicans SC5314 = conditions: SC5314, 24 h
[2] = system: Aspergillus nidulans FGSC A4; conditions: 24 h
[3] = system: Schizosaccharomyces pombe 972h-
B. subtilis = experiment: Antibacterial MIC, microbroth dilution; format: cell-based, Bacillus subtilis JH642; conditions: growth curves OD600, 20 h
Protocol: (§1) The antibacterial activity of the natural peptides and analogs was determined using the standard microbroth dilution method for determining minimal inhibitory concentration (MIC). […] The analog EMP-ER-D2K2 is the only analog that has some, but low, activity against B. subtilis with an MIC of 200 μg/mL.
(§2) Escherichia coli ATCC 25922 was obtained from ATCC and Pseudomonas aeruginosa ATCC 27853 was obtained from Carolina Biologicals. Staphylococcus aureus Newman was the S. aureus strain and the B. subtilis strain was JH642 (trpC2, pheA1).
(§3) Bacteria were grown on LB-agar plates (Fisher, Waltham, MA, USA) overnight at 37 °C, then stored at 4 °C until use. Four colonies were inoculated from the plate into 5 mL cation-adjusted Mueller-Hinton medium (Sigma) and grown to approximately OD600 = 1–2 at 37 °C in a shaking incubator at 250 rpm in preparation for antimicrobial activity testing. MICs were determined in cation-adjusted Mueller-Hinton broth using the microbroth dilution method from the Clinical and Laboratory Standards Institute. Growth was monitored by determining the optical density at 600 nm using a BioTek Synergy HTX multi-mode 96-well plate reader set to incubate at 37 °C and record every 15 min for 20 h. Each assay was performed in biological triplicate.

E. coli = experiment: Antibacterial MIC, microbroth dilution; format: cell-based, Escherichia coli ATCC 25922; conditions: growth curves OD600, 20 h
Protocol: as §1, §2, §3

| Compound | MIC Sc [1] | MIC Ca (Candida albicans SC5314) | MIC An [2] | MIC Sp [3] | effect on B. subtilis culture growth (B. subtilis) | effect on Escherichia coli culture growth (E. coli) |
| --- | --- | --- | --- | --- | --- | --- |
| CC[C@H](C)[C@H](NC(=O)[C@H](CC(=O)O)NC(=O)[C@@H](N)Cc1ccccc1)C(=O)N[C@@H](CC[S+](C)[O-])C(=O)NCC(=O)N[C@@H](CC(C)C)C(=O)N[C@H](C(=O)N[C@@H](CCCCN)C(=O)N[C@@H](CCCCN)C(=O)N[C@H](C(=O)N[C@@H](C)C(N)=O)C(C)C)[C@@H](C)CC (stereo partly shown) [EMP-ER-C3] | >256 µg/mL | >256 µg/mL | >256 µg/mL | >256 µg/mL |  |  |
| CC[C@H](C)[C@H](NC(=O)[C@H](CC(=O)O)NC(=O)[C@@H](N)Cc1ccccc1)C(=O)N[C@@H](CC[S+](C)[O-])C(=O)NCC(=O)N[C@@H](CC(C)C)C(=O)N[C@H](C(=O)N[C@@H](CCCCN)C(=O)N[C@@H](CCCCN)C(=O)N[C@H](C(=O)N[C@@H](C)C(=O)NCC(=O)N[C@@H](C)C(=O)N[C@@H](CC(C)C)C(N)=O)C(C)C)[C@@H](C)CC (stereo partly shown) [EMP-ER-OR] | >256 µg/mL | 256 µg/mL (≈ 172 µM) | >256 µg/mL | >256 µg/mL | reduced the final density | reduced the final density |

In brackets after ≈: the same amount, converted by molar mass.
